Tests used:
MES-SA cells = assay: Cell viability of MES-SA cells with paclitaxel or docetaxel plus spiradoline (Example 7); settings: MES-SA cells not drug resistant, 3 pmol/L spiradoline as printed, 48 h
DU145_TxR cells = assay: Cell viability of paclitaxel- and docetaxel-resistant DU145_TxR cells with cabazitaxel plus combination compound (Example 1)
MCF7-TxR cells = assay: Cell viability of paclitaxel-resistant MCF7-TxR cells with paclitaxel or docetaxel plus spiradoline (Example 7); settings: paclitaxel-resistant MCF7-TxR cells, 3 pmol/L spiradoline as printed, 48 h
PC3_TxR cells = assay: Cell viability of paclitaxel- and docetaxel-resistant PC3_TxR cells with taxane plus spiradoline (Examples 2, 3)
PC3_CxR cells [1] = tested on: PC3_CxR cells
PC3_CxR cells [2] = assay: Tumor size in SCID mice implanted with PC3_CxR cells (Example 5); settings: PC3_CxR implant, cabazitaxel 5 mg/kg i.p. once a week, three weeks, FIG. 12
MES-SA/Dx5 cells = assay: Cell viability of multidrug-resistant MES-SA/Dx5 cells with paclitaxel or docetaxel plus spiradoline (Example 7); settings: 3 pmol/L spiradoline as printed, 48 h
MCF-7 cells = assay: Cell viability of MCF-7 cells with paclitaxel or docetaxel plus spiradoline (Example 7); settings: MCF-7 cells not drug resistant, 3 pmol/L spiradoline as printed, 48 h
[3] = calculated from the graphs, FIG. 5
[4] = calculated from the graphs, FIG. 8

## CN(C(=O)Cc1ccc(Cl)c(Cl)c1)[C@H]1CC[C@@]2(CCCO2)C[C@@H]1N1CCCC1
MES-SA cells; FIG. 15
  efficacy of paclitaxel (cell viability) used in combination with spiradoline vs DMSO: substantially the same as with DMSO
MES-SA cells; FIG. 16
  efficacy of docetaxel (cell viability) used in combination with spiradoline vs DMSO: substantially the same as with DMSO
DU145_TxR cells; cabazitaxel 0-100 nmol/L, 48 h, compared with other combination compounds, FIG. 3
  efficacy of cabazitaxel used in combination (cell viability): higher efficacy
DU145_TxR cells; [3]
  IC50 of cabazitaxel used in combination, as compared with DMSO: markedly lower
MCF7-TxR cells; FIG. 13
  efficacy of paclitaxel (cell viability) used in combination with spiradoline vs DMSO: higher than that with DMSO
MCF7-TxR cells; FIG. 14
  efficacy of docetaxel (cell viability) used in combination with spiradoline vs DMSO: higher than that with DMSO
PC3_TxR cells; [4]
  IC50 of cabazitaxel used in combination, as compared with DMSO: markedly lower
PC3_TxR cells; spiradoline 0.1, 1, 10 μmol/L vs DMSO, FIG. 6
  efficacy of cabazitaxel (cell viability) in combination with spiradoline: increased depending on the concentration of spiradoline
PC3_TxR cells; spiradoline 3, 10 μmol/L vs DMSO, FIG. 9
  efficacy of paclitaxel (cell viability) in combination with spiradoline: increased depending on the concentration of spiradoline
PC3_TxR cells; spiradoline 3, 10 μmol/L vs DMSO, FIG. 10
  efficacy of docetaxel (cell viability) in combination with spiradoline: increased depending on the concentration of spiradoline
PC3_CxR cells [1]; [4]
  IC50 of cabazitaxel used in combination, as compared with DMSO: markedly lower
PC3_CxR cells [1]; spiradoline 0.1, 1, 10 μmol/L vs DMSO, FIG. 7
  efficacy of cabazitaxel (cell viability) in combination with spiradoline: increased depending on the concentration of spiradoline
PC3_CxR cells [2]; spiradoline 2 or 5 mg/kg i.p. twice a week
  tumor size, spiradoline and cabazitaxel in combination vs only spiradoline or cabazitaxel: smaller
PC3_CxR cells [2]; spiradoline i.p. twice a week
  tumor size, 5 mg/kg spiradoline and cabazitaxel vs 2 mg/kg spiradoline and cabazitaxel: smaller
MES-SA/Dx5 cells; FIG. 15
  efficacy of paclitaxel (cell viability) used in combination with spiradoline vs DMSO: higher than that with DMSO
MES-SA/Dx5 cells; FIG. 16
  efficacy of docetaxel (cell viability) used in combination with spiradoline vs DMSO: higher than that with DMSO
MCF-7 cells; FIG. 13
  efficacy of paclitaxel (cell viability) used in combination with spiradoline vs DMSO: substantially the same as with DMSO
MCF-7 cells; FIG. 14
  efficacy of docetaxel (cell viability) used in combination with spiradoline vs DMSO: substantially the same as with DMSO
DU145_CxR cells; cabazitaxel 0-100 nmol/L, 48 h, compared with other combination compounds, FIG. 4
  efficacy of cabazitaxel used in combination (cell viability): higher efficacy
DU145_CxR cells; [3]
  IC50 of cabazitaxel used in combination, as compared with DMSO: markedly lower

From patent publication US20240156781A1, “CANCER THERAPEUTIC AGENT” (published 2024)
